Target: T1, E. coli β clamp (Escherichia coli, UniProt P0A988)
T1 construct: made in house; host or cells: E. coli BL21 (β); P1 by solid-phase synthesis
Test: SPR competition assay: inhibition of P1-β interaction by challenging peptides;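 further: SPR responses corrected for background, then fitted with a 1:1 Langmuir binding model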
Settings: concentration of ligand that challenges 50% of the binding of natural peptide P1

Protein sequences, listed by entry. Tags and fused reporters are not part of them. Lines headed by an entry give the natural chain unless they say otherwise; changes in a name come on top.
UniProt P0A988: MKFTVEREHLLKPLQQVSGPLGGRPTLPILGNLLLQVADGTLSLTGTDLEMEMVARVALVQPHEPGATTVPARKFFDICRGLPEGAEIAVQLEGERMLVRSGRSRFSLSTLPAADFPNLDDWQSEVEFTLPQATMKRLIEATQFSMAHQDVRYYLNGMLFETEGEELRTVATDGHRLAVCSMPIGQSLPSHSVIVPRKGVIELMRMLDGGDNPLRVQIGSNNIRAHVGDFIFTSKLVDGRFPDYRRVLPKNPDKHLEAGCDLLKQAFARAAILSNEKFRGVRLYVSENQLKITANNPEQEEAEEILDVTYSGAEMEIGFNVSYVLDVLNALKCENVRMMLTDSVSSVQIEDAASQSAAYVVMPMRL

## Ac R Q Cha N L diClF [Peptide P14-4]
  Ki (nM): insoluble

Source: patent publication US9133240B2, “Compounds binding to the bacterial beta ring” (Centre National de la Recherche Scientifique, priority 2011, dated 2015)
